Legend:
[1] = tested on: anti-β-FSH monoclonal antibodies 22A3G7; 5H3E8; test: Recognition by anti-β-FSH monoclonal antibodies 22A3G7 and 5H3E8; type: binding; settings: antibodies immunoreactive with metrodine and ovarian extracts
anti-ovary antibodies = test: Recognition by serums containing anti-ovary antibodies; type: binding
[2] = tested on: anti-β-FSH monoclonal antibody 7G5A1; test: Reaction with anti-β-FSH monoclonal antibody 7G5A1; type: binding; settings: antibody only recognizing metrodine
[3] = tested on: anti-ovary antibodies (AOA); test: ELISA on 30 patient sera: correlation of serum reactivity toward crude ovarian antigen and toward each peptide (Example 2); type: binding, human; settings: 30 sera from patients, compared among antigens
Protocol: The concentration of molecules to be adsorbed was determined by checkerboard experiments for each antigen. It is about 1 μg per well.
The binding of the antigens to the solid phase is performed in one night at +4° C. in the amount of 100 μl per well of the solution of antigen in carbonate-bicarbonate buffer. The plate is emptied. The sites of the solid phase still unoccupied are saturated on incubation for one hour at 37° C. with 200 μl per well of 5% powdered milk reconstituted in PBS.
The samples to be tested are diluted in PBS to which 0.5% BSA and 0.2% Tween 20 have been added: dilution to 1/50 for the search for anti-ovary and anti-corpus luteum antibodies. The plate is emptied and washed 3 times in PBS. The samples are distributed in the amount of 100 μl per well. The plate is incubated for 45 minutes at 37° C.
The anti-isotypes are diluted in the same solution that was used for the dilution of the samples:
The plate is again emptied and washed 3 times in PBS. Then the anti-isotypes are distributed in the amount of 100 μl per well. […]
After 3 further washings of the plate, 100 μl of developer solution are distributed into each well. […] The plate is read on the spectrophotometer at 492 nm using the Multiskan II reader.
The results are firstly expressed as optical density (O.D.) then calculated as ratios relative to a control sample at the limit of positivity. […]

FSH: follicle stimulating hormone (FSH or gonadotrophin A); FSH (Metrodine®, Serono)
recognition by anti-β-FSH monoclonal antibodies 22A3G7; 5H3E8 [1]: recognized | recognition by serums containing anti-ovary antibodies (anti-ovary antibodies): recognized | reaction with anti-β-FSH monoclonal antibody 7G5A1 [2]: recognizing | correlation between reactivity of sera toward ovarian antigen and toward the antigen tested, in words [3]: same results as those obtained for the peptide SEQ ID No.1

From patent publication US6602853B1, “Antigenic peptides reacting with anti-ovary antibodies” (Bio Merieux, priority 1996, dated 2003)
